Experimental data as given in patent US9221796B2, “Selective NR2B antagonists” (BRISTOL-MYERS SQUIBB COMPANY, priority 2014, dated 2015).

Sequences of proteins named here, by UniProt entry; tags and fusion partners are left off. Residues count along the entry.
UniProt Q00960, 27-1482: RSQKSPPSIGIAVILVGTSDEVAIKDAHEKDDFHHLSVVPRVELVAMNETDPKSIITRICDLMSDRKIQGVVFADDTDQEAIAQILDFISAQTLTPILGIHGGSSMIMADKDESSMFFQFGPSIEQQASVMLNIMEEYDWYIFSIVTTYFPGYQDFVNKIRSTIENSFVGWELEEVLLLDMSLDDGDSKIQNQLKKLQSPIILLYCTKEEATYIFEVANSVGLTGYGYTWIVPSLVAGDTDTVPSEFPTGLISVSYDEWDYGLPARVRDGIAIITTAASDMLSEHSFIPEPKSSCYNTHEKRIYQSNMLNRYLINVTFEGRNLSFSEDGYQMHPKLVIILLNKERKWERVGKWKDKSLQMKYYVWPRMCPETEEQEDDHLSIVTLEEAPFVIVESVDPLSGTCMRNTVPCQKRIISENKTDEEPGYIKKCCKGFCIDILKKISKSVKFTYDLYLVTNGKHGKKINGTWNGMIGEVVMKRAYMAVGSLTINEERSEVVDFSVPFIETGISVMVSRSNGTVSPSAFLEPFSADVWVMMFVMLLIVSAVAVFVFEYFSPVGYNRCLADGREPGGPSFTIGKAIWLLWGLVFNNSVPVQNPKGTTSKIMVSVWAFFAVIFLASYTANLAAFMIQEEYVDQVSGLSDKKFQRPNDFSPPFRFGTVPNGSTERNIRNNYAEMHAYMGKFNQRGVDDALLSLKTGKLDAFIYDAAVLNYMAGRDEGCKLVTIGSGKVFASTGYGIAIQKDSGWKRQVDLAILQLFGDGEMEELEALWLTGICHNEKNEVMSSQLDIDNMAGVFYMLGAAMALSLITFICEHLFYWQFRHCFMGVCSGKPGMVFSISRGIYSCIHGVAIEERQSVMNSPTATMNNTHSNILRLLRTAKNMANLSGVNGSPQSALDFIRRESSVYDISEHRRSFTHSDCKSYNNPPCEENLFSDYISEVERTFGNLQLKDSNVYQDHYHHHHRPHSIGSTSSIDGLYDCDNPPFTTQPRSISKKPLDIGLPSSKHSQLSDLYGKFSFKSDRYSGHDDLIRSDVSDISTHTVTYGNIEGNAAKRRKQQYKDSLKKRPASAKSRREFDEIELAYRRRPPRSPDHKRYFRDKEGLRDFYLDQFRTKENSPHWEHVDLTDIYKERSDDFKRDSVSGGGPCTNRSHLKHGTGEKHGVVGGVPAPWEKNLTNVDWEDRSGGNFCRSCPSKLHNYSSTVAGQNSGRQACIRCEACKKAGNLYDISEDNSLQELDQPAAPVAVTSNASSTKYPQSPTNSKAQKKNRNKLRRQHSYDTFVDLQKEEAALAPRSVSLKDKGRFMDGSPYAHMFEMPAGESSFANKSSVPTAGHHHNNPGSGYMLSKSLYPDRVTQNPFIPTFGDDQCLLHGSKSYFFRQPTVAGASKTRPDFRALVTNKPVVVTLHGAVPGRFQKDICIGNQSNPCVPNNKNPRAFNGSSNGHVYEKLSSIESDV

Target: NR2B-subtype NMDA receptors (Rattus norvegicus (Rat), UniProt P35439+Q00960)
Test: Radioligand binding assay (3H Ro 25-6981 competition, forebrain membranes)
Conditions: 3H Ro 25-6981 (4 nM)
Method: Radioligand Binding Assay. […] Buchy D; Klingelschmidt A; Messer J; Bleuel Z; Kemp J A; Richards J G. […] Thawed brains were homogenized using a Dounce homogenizer and centrifuged at 48000×g for 20 min. The pellet was resuspended in cold buffer and homogenized again using a Dounce homogenizer. […] After incubation for 1 hr at room temperature, the membrane bound radioligand was harvested on to GF/B filter plates (treated with 0.5% PEI for 1 hr at room temperature). The filter plates were dried at 50° C. for 20 mins, incubated with microscint 20 for 10 minutes and finally, the counts were read on TopCount (Perkin Elmer). […] CPM values were converted to % inhibition and the concentration response curves were plotted using custom made software. Each experiment was repeated at least twice to obtain the final binding Ki values for experimental compounds.

| Ki [nM] | Compound |
| --- | --- |
| 660 | Cc1ccc(CN2CCC(N3CCC(c4ccc(O)cc4)C(F)(F)C3)C2=O)cc1 (single isomer, unassigned) [Example 51, P-1] |
| 7.6 | Cc1ccc(CN2CCC(N3CCC(c4ccc(O)cc4)C(F)(F)C3)C2=O)cc1 (single isomer, unassigned) [Example 51, P-2] |
| 30 | Cc1ccc(CN2CCC(N3CCC(c4ccc(O)cc4)C(F)(F)C3)C2=O)cc1 (single isomer, unassigned) [Example 51, P-3] |
| 11 | Cc1ccc(CN2CCC(N3CCC(c4ccc(O)cc4)C(F)(F)C3)C2=O)cc1 (single isomer, unassigned) [Example 51, P-4] |
| 690 | Cc1ccc(CN2CCC(N3CCC(c4ccc(O)cc4)C(F)(F)C3)C2=O)cc1F (single isomer, unassigned) [Example 52, P-1, 3-(3,3-difluoro-4-(4-hydroxyphenyl)piperidin-1-yl)-1-(3-fluoro-4-methylbenzyl)pyrrolidin-2-one] |
| 6.2 | Cc1ccc(CN2CCC(N3CCC(c4ccc(O)cc4)C(F)(F)C3)C2=O)cc1F (single isomer, unassigned) [Example 52, P-2, 3-(3,3-difluoro-4-(4-hydroxyphenyl)piperidin-1-yl)-1-(3-fluoro-4-methylbenzyl)pyrrolidin-2-one] |
| 89 | Cc1ccc(CN2CCC(N3CCC(c4ccc(O)cc4)C(F)(F)C3)C2=O)cc1F (single isomer, unassigned) [Example 52, P-3, 3-(3,3-difluoro-4-(4-hydroxyphenyl)piperidin-1-yl)-1-(3-fluoro-4-methylbenzyl)pyrrolidin-2-one] |
| 6.7 | Cc1ccc(CN2CCC(N3CCC(c4ccc(O)cc4)C(F)(F)C3)C2=O)cc1F (single isomer, unassigned) [Example 52, P-4, 3-(3,3-difluoro-4-(4-hydroxyphenyl)piperidin-1-yl)-1-(3-fluoro-4-methylbenzyl)pyrrolidin-2-one] |
| 530 | O=C1C(N2CCC(c3ccc(O)cc3)C(F)(F)C2)CCN1Cc1ccc(F)cc1 (single isomer, unassigned) [Example 54, P-1, 3-(3,3-difluoro-4-(4-hydroxyphenyl)piperidin-1-yl)-1-(4-fluorobenzyl)pyrrolidin-2-one] |
| 8.5 | O=C1C(N2CCC(c3ccc(O)cc3)C(F)(F)C2)CCN1Cc1ccc(F)cc1 (single isomer, unassigned) [Example 54, P-2, 3-(3,3-difluoro-4-(4-hydroxyphenyl)piperidin-1-yl)-1-(4-fluorobenzyl)pyrrolidin-2-one] |
| 110 | O=C1C(N2CCC(c3ccc(O)cc3)C(F)(F)C2)CCN1Cc1ccc(F)cc1 (single isomer, unassigned) [Example 54, P-3, 3-(3,3-difluoro-4-(4-hydroxyphenyl)piperidin-1-yl)-1-(4-fluorobenzyl)pyrrolidin-2-one] |
| 26 | O=C1C(N2CCC(c3ccc(O)cc3)C(F)(F)C2)CCN1Cc1ccc(F)cc1 (single isomer, unassigned) [Example 54, P-4, 3-(3,3-difluoro-4-(4-hydroxyphenyl)piperidin-1-yl)-1-(4-fluorobenzyl)pyrrolidin-2-one] |
| 280 | Cc1ccc(N2CCC(N3CCC(c4ccc(O)cc4)C(F)(F)C3)C2=O)cc1F (single isomer, unassigned) [Example 55, P-1] |
| 32 | Cc1ccc(N2CCC(N3CCC(c4ccc(O)cc4)C(F)(F)C3)C2=O)cc1F (single isomer, unassigned) [Example 55, P-2] |
| 130 | Cc1ccc(N2CCC(N3CCC(c4ccc(O)cc4)C(F)(F)C3)C2=O)cc1F (single isomer, unassigned) [Example 55, P-3] |
| 430 | Cc1ccc(N2CCC(N3CCC(c4ccc(O)cc4)C(F)(F)C3)C2=O)cc1F (single isomer, unassigned) [Example 55, P-4] |
| 430 | Cc1ccc(CN2CC[C@H](N3CC[C@H](c4ccc(O)cc4)[C@@H](F)C3)C2=O)cc1 [Example 46, P-1, (S)-3-((3R,4R)-3-fluoro-4-(4-hydroxyphenyl)piperidin-1-yl)-1-(4-methylbenzyl)pyrrolidin-2-one] |
| 4.3 | Cc1ccc(CN2CC[C@@H](N3CC[C@H](c4ccc(O)cc4)[C@@H](F)C3)C2=O)cc1 [Example 46, P-2, (R)-3-((3R,4R)-3-fluoro-4-(4-hydroxyphenyl)piperidin-1-yl)-1-(4-methylbenzyl)pyrrolidin-2-one] |
| 340 | Cc1ccc(CN2CC[C@H](N3CC[C@@H](c4ccc(O)cc4)[C@H](F)C3)C2=O)cc1 [Example 46, P-3, (S)-3-((3S,4S)-3-fluoro-4-(4-hydroxyphenyl)piperidin-1-yl)-1-(4-methylbenzyl)pyrrolidin-2-one] |
